Test results as given in patent US5688799A, “9-Hydroxy-pyrido[1,2-a]pyrimidin-4-one ether derivatives” (Janssen Pharmaceutica N.V., priority 1993, dated 1997).

Test system: norepinephrine (death upon administration of the α2 -agonist norepinephrine)
Assay: combined APO, TRY, NOR test in rats: norepinephrine (NOR)
Assay type: in vivo

Compound: CCCCCCCCCCCCOc1cccn2c(=O)c(CCN3CCC(c4noc5cc(F)ccc45)CC3)c(C)nc12 [Compound 3]
- NOR ED50: 10 mg/kg
